Target: T1, Solute carrier family 2, facilitated glucose transporter member 9 (Mus musculus) (UniProt Q3T9X0)
T1 sequence (whole entry): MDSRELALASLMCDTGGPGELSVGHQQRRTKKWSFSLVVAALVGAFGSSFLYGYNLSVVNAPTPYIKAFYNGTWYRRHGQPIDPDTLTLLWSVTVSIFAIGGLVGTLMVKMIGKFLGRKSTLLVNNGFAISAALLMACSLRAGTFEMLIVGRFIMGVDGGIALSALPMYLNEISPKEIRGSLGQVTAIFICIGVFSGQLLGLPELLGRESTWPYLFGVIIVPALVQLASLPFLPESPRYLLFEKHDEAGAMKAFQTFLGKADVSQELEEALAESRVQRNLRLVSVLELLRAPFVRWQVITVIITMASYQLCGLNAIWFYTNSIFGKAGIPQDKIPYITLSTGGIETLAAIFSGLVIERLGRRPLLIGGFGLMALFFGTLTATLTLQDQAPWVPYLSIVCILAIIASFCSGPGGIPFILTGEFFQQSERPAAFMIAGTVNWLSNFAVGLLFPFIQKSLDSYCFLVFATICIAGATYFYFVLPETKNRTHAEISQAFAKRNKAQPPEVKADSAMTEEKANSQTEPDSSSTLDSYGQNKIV
Assay: Inhibition of mouse GLUT9 transfected in human HEK293 cells assessed as inhibition of uric acid induced current at 10 uM by cell patch-clamp assay
Assay type: cell-based

O=C(c1cc(Cl)c(O)c(Cl)c1)n1ccc2cccnc21
inhibition: 5.91%
